Amino acid sequences for entries named in this document (tags omitted).
UniProt P30968, whole entry: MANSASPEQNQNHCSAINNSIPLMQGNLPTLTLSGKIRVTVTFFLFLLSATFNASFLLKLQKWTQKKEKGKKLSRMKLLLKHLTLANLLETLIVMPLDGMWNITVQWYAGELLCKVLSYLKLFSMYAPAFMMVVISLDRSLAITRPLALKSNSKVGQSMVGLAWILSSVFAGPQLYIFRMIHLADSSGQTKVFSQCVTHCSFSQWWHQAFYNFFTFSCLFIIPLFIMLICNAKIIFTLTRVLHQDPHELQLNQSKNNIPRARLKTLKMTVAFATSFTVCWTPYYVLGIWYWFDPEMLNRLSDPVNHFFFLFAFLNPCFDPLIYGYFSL

In US7960562B2, “Propane-1,3-dione derivative or salt thereof” (Astellas Pharma Inc., priority 2005, dated 2011):

Molecular target: human GnRH receptor (Homo sapiens, UniProt P30968)
Test: Test for GnRH receptor antagonistic effect (inhibition of 125I-D-Trp6-LHRH binding)
Protocol: The GnRH receptor antagonistic effects of the compounds of the present invention were evaluated by calculating their concentration that inhibit 50% of the binding of ^125I-D-Trp^6-LHRH to a human GnRH receptor (IC50), according to the description in Patent Reference 1, page 56 “1. Test for GNRH Receptor Antagonistic Effect”.
Accordingly, for confirming the usefulness of “group of —SO2—R^3”, the activities of the compounds of the present invention was compared with those of the comparative compounds having —CO—R^3 group.

[1] = read-out: IC50 (concentration that inhibits 50% of the binding of 125I-D-Trp6-LHRH to a human GnRH receptor), Table 1

Structure (SMILES) | pIC50 [1] | pIC50 (read-out: IC50 (GnRH receptor binding), SO2-R3 compounds versus comparative CO-R3 compounds, Table 2)
C[C@@H](O)C(=N)NS(=O)(=O)c1cccc(C(=O)C(C(=O)c2cccc(F)c2)=C2Nc3ccccc3N2)c1 | 10.04 | –
CC(=N)NS(=O)(=O)c1cc(C(=O)C(C(=O)c2cccc(F)c2)=C2Nc3ccccc3N2)ccc1F | 9.80 | –
NC(N)=NC(=O)c1cccc(C(=O)C(C(=O)c2cc(F)cc(F)c2)=C2Nc3ccccc3N2)c1 | – | 8.30

pIC50: −log10 of the molar value. Read-outs that look alike come from different tables or passages of the source.
